# Target: β-CA from Malassezia restricta (MreCA) (Malassezia restricta, UniProt A0A3G2S4B9)
# Amino acid sequences for entries named in this document (tags omitted). Residues count along the entry.
# UniProt A0A3G2S4B9, 1-238: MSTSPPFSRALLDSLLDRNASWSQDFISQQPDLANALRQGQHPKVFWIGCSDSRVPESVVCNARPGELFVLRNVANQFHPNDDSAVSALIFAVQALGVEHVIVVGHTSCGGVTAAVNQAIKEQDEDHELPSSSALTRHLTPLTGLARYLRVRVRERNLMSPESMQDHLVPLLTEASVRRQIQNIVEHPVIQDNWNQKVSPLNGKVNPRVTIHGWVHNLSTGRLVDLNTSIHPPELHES
# Assay type: biochemical
# Conditions: pH 8.3
substance,measurement,value
fluorosulfonate [FSO3^−],Ki,> 50 mM

# Source: article PMC6680850, “Anion Inhibition Profile of the β-Carbonic Anhydrase from the Opportunist Pathogenic Fungus Malassezia restricta Involved in Dandruff and Seborrheic Dermatitis” (Metabolites, 2019)
